Measured values from publication PMC12186257, “Serendipitous and Systematic Chemoproteomic Discovery of MBLAC2, HINT1, and NME1‑4 Inhibitors from Histone Deacetylase-Targeting Pharmacophores” (ACS Chemical Biology, 2025).

Amino acid sequences for entries named in this document (tags omitted).
UniProt Q68D91, whole entry: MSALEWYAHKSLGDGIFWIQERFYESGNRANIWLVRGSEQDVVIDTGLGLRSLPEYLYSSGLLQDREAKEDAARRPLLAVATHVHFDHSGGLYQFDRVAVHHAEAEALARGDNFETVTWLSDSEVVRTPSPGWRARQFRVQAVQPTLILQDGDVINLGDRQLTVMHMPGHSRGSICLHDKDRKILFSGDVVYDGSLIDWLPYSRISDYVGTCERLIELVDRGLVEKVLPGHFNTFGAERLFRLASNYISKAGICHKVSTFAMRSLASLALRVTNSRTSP

How the values were obtained:
[1] = tested on: HDAC; assay: chemoproteomic competition assay (MV4-11/SW620 lysate, iA/iC/iQ beads, MS readout); type: binding, human; conditions: nine-dose competition assay
[2] = target: MBLAC2 (Homo sapiens, UniProt Q68D91); assay: as above; type: binding; conditions: read-out: apparent dissociation constant (KDapp) MBLAC2; nine-dose competition assay

## CC(C)(C)c1ccc(CN(C(=O)CN(Cc2c(F)c(F)c(F)c(F)c2F)S(=O)(=O)c2ccc(F)cc2)c2ccc(C(=O)NO)cc2)cc1
[1]
  concentration up to which no HDAC target engagement: > 30 µM
[2]
  Kd: 3.5 µM
